{"source": "patent US20040022667A1", "about": "(priority 2001, published 2004)", "origin": "cited, not measured here", "settings": "versus Cl2; cited from earlier work"}
{"substance": "Chlorine dioxide", "values": [{"measurement": "solubility in water relative to chlorine gas (Cl2)", "value": "approximately 5 times"}]}
